# Results from US20220380309A1, “CHOLINE METABOLISM INHIBITORS” (President and Fellows of Harvard College, priority 2018, published 2022).
# By UniProt entry, the sequences of proteins in these tests, tags left out. Where a name states a change or a piece, a line headed by the entry shows the natural chain unless it says otherwise.
# UniProt Q30W70: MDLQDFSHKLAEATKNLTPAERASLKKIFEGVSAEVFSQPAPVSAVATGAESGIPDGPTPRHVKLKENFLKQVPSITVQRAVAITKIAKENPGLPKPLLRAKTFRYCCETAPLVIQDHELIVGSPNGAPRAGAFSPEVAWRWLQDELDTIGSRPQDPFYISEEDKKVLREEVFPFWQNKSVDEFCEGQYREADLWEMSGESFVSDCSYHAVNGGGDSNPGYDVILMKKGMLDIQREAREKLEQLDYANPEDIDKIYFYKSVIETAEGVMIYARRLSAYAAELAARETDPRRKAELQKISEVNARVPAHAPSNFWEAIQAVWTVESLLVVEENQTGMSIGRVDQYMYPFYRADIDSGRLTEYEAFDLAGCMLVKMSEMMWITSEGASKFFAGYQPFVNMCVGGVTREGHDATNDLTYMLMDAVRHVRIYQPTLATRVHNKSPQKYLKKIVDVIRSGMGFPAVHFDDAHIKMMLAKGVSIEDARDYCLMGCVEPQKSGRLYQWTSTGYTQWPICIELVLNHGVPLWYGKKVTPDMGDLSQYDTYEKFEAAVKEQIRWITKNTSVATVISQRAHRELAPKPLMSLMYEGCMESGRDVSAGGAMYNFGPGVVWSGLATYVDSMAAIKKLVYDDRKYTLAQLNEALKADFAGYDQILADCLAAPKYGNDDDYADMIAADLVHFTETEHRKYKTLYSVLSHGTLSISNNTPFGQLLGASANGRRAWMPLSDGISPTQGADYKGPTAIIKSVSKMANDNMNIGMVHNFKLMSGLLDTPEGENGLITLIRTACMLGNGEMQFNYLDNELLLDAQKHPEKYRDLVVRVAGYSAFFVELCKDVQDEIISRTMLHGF
# Target: CutC (Oleidesulfovibrio alaskensis, UniProt Q30W70)
# Details: 10 mM compound
smiles,measurement,value
CN1CCCC(=O)C1,inhibition at 10 mM,20% inhibition at 10 mM
